Yeast mating assay 1: variants of the scFv Ab-14

Target: peptide PDVDLGDISGINAS, taken from heptad repeat 2 (HR2) of SARS-CoV-2 spike.

The variants keep the light chain, the linker and the frameworks of Ab-14 (scFv order VH, a 15-residue (Gly4Ser)3 linker, VL).
VH: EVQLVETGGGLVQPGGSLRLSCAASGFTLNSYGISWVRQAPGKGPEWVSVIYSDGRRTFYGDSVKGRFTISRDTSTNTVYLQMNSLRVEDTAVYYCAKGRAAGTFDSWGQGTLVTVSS
VL: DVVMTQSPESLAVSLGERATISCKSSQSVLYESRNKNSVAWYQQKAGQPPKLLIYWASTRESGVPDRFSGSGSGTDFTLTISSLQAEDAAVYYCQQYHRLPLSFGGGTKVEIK

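Phage display of a naive human antibody library on the peptide gave the parent. The library (AAYL49) carries one to three amino acid substitutions per variant, with no insertions or deletions. The assay is AlphaSeq: two haploid yeast populations carry antibody and antigen on their surface. The frequency of each diploid, read from paired DNA barcodes, reflects how well the two displayed proteins bind. A regression on co-assayed BCL2-family reference pairs converts the normalised counts of each replicate to an apparent Kd. There are three technical replicates.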

Each variant's VH is given in full.
Every variant below is changed at S31 of the VH (sequential numbering).
Scale: log10 of Kd in nM, estimated from mating counts; low values are strong binders.
Replicates are averaged; those with no signal do not enter the mean.
A pair that was not seen in that replicate is written "ND"; this usually means weak binding, but a binder can also be missed.
Background: pairings of library AAYL49 with three empty control strains gave a value in 15% of cases (median 4.06, 5th percentile 2.83). Values in that range, when seen in few replicates, are hard to tell from nonspecific mating.

For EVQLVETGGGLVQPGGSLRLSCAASGFTLNGYGISWVRQAPGKGPEWVSVIYSDGRRTFYGDSNKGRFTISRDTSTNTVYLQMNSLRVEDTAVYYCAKGRAAGTADSWGQGTLVTVSS, the assay gave 3.17, 2.88, 4.96 (mean 3.67). With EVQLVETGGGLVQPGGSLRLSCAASGFTLNAYGISWVRQAPGKGPEWVSVIYSDGRDTFYGDSKKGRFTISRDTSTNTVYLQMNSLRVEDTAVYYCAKGRAAGTFDSWGQGTLVTVSS the result was ND, ND, ND. For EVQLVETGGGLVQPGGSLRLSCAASGFTLNCYGISWVRQAPGKGPEWVSVIYSDRRRTFYGDSVKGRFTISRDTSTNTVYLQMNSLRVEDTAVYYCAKGRAAGTTDSWGQGTLVTVSS, the assay gave ND, ND, ND. With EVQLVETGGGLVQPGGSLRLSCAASFFTLNRYGISWVRQAPGKGPEWVSVIYSDGRRTFYGDSVKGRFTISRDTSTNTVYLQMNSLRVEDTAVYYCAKGRAAYTFDSWGQGTLVTVSS the result was ND, ND, ND. Variant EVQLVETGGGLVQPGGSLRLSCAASGFTLNAYGISWVRQAPGKGPEWVSVIYSDGRRTFYGFSVKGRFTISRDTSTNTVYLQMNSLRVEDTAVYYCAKGRAAGTFDVWGQGTLVTVSS showed ND, ND, ND. For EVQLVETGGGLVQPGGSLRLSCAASGFTLNPYGISWVRQAPGKGPEWVSVIYSDGRRIFYGDSVKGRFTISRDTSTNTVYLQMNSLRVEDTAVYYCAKGRAMGTFDSWGQGTLVTVSS, the assay gave 3.89, 4.96, ND (mean 4.42).

Variant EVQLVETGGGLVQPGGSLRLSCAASGFTLNQYGISWVRQAPGKGPEWVSVIYSDRRRTFYGDSVKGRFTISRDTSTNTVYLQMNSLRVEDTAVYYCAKGRAAGTFDSWGQGTLVTVSS gave ND, 5.26, ND. Variant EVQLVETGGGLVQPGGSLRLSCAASGFYLNWYGISWVRQAPGKGPEWVSVIFSDGRRTFYGDSVKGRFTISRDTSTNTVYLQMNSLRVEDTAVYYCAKGRAAGTFDSWGQGTLVTVSS showed ND, 1.88, ND. Variant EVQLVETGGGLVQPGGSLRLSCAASGFTLNEYGISWVRQAPGKGPEWVSMIYSDGRRTFYGDSVKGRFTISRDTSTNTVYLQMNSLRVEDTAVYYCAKGRQAGTFDSWGQGTLVTVSS gave ND, 3.36, ND. Variant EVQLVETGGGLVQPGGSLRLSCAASGFTKNVYGTSWVRQAPGKGPEWVSVIYSDGRRTFYGDSVKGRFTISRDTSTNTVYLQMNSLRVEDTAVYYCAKGRAAGTFDSWGQGTLVTVSS showed ND, 3.75, 3.84 (mean 3.80). For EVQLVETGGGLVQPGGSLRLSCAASGFTLNIYGISWVRQAPGKGPEWVSVIYSDGRRTFYGHSVKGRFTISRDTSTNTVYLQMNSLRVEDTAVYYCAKQRAAGTFDSWGQGTLVTVSS, the assay gave ND, ND, ND. With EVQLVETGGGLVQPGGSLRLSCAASGFTLNLYGISWVRQAPGKGPEWVSVIYSDGNRTFYGDSVKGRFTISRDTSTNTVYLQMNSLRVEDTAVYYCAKGRFAGTFDSWGQGTLVTVSS the result was 2.49, 1.47, 1.84 (mean 1.93).

Variant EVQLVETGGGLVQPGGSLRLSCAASGFLLNPYGISWVRQAPGKGPEWVSVIYSDGRRTFYGDSCKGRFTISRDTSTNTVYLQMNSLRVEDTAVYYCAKGRAAGTFDSWGQGTLVTVSS gave ND, ND, ND. With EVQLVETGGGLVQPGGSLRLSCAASGFRLNCYGISWVRQAPGKGPEWVSVIYSDGRRDFYGDSVKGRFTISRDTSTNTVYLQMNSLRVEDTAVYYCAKGRAAGTFDSWGQGTLVTVSS the result was 4.79, 2.67, ND (mean 3.73). Variant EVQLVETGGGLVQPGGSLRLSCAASGFTLNDYGISWVRQAPGKGPEWVSVIYSAGRRTFAGDSVKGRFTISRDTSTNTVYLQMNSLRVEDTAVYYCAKGRAAGTFDSWGQGTLVTVSS gave ND, 3.98, ND. Variant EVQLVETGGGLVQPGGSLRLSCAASGFTLNMYGISWVRQAPGKGPEWVSVIYSDGRRTFYGDSVKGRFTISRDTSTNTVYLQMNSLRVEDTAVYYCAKGRSHGTFDSWGQGTLVTVSS showed ND, ND, ND. With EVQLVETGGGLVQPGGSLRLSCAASGFTLNPYGISWVRQAPGKGPEWVSVIYSDGRRTFYGDSVKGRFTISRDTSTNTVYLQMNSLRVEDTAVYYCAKGRAAGTFDSWGQGTLVTVSS the result was ND, ND, ND. For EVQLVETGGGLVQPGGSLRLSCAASGFTLNCYGISWVRQAPGKGPEWVSEIYSDGRRTFYGDSVKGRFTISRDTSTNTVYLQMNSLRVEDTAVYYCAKGHAAGTFDSWGQGTLVTVSS, the assay gave ND, 3.69, ND.

With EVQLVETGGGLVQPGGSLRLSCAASGFTLNYYGIVWVRQAPGKGPEWVSVIYSDGRRTFYGDSVKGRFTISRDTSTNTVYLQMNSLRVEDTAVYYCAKQRAAGTFDSWGQGTLVTVSS the result was ND, 3.05, ND. For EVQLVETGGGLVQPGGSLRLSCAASGFTLNLYGISWVRQAPGKGPEWVSVIYSDGRRTFYGDSVKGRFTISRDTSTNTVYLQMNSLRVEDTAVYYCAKGRAAGFFDSWGQGTLVTVSS, the assay gave ND, 4.28, ND. With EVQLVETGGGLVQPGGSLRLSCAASGFTLNRYGISWVRQAPGKGPEWVSVIYSDGRRTFYGDSVKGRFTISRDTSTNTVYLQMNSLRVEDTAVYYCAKDRAAGSFDSWGQGTLVTVSS the result was 1.26, 1.12, 1.37 (mean 1.25). Variant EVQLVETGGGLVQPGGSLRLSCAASGFTLNDYGISWVRQAPGKGPEWVSVIYSDGRRTFSGDSVKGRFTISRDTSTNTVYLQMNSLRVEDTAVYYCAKGRAAGTFDCWGQGTLVTVSS gave ND, ND, ND. Variant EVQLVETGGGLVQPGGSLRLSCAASGFTLNDYGISWVRQAPGKGPEWVSVIYSDGRRTFYGDSVKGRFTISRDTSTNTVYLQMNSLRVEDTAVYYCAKGRAAGEFDIWGQGTLVTVSS showed 0.65, 0.79, 0.80 (mean 0.75). With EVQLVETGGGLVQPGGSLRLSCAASCFTLNMYGISWVRQAPGKGPEWVSVIYSYGRRTFYGDSVKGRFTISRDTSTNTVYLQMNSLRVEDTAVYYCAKGRAAGTFDSWGQGTLVTVSS the result was ND, ND, 3.44.

From the AlphaSeq antibody data of Engelhart et al. 2022 (doi:10.1038/s41597-022-01779-4), copy in the FLAb collection.